Columns and labels:
[1] = biological target: ACE2 in murine heart (Mus musculus, UniProt Q8R0I0); test: ACE2 activity assay in murine heart homogenate; format: biochemical
[2] = biological target: T1, ACE in murine heart (Mus musculus, UniProt P09470); test: ACE activity assay in murine heart homogenate; format: biochemical; details: tissue lysate, 4 h
T1 sequence (P09470 35-1312): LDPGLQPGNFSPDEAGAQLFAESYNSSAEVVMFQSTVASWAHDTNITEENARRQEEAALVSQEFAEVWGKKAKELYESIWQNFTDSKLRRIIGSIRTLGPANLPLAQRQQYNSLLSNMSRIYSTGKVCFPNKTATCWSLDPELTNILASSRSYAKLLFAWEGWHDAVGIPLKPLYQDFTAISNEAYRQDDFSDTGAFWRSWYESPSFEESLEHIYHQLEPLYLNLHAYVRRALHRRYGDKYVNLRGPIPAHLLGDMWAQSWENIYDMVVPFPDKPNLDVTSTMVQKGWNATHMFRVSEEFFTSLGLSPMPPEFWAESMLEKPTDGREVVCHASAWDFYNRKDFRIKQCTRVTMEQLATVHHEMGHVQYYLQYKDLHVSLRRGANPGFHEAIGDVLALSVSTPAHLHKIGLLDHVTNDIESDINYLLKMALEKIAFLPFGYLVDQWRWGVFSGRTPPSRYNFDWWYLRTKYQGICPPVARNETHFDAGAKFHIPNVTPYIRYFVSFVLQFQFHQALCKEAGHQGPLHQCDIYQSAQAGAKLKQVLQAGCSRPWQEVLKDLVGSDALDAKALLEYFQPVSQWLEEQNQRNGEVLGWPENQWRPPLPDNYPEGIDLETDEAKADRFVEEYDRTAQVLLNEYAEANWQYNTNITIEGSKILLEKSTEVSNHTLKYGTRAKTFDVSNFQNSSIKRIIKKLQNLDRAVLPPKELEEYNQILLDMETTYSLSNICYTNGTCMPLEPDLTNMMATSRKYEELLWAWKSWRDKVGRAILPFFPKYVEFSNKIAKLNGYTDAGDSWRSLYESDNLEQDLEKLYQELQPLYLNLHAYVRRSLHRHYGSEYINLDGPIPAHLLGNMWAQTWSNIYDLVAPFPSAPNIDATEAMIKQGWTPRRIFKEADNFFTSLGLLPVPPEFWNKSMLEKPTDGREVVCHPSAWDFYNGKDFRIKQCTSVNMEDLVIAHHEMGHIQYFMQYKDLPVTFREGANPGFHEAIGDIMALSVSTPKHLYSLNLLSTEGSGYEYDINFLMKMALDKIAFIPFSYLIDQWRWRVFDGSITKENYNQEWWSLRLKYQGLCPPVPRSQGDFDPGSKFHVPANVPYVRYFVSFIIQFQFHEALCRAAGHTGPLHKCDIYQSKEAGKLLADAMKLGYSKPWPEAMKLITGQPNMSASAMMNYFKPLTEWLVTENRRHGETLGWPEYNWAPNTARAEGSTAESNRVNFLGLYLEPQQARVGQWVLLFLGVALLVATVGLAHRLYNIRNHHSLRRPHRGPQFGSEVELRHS

Protein sequences, listed by entry. Tags and fused reporters are not part of them. Residues count along the entry.
UniProt Q8R0I0, 18-805: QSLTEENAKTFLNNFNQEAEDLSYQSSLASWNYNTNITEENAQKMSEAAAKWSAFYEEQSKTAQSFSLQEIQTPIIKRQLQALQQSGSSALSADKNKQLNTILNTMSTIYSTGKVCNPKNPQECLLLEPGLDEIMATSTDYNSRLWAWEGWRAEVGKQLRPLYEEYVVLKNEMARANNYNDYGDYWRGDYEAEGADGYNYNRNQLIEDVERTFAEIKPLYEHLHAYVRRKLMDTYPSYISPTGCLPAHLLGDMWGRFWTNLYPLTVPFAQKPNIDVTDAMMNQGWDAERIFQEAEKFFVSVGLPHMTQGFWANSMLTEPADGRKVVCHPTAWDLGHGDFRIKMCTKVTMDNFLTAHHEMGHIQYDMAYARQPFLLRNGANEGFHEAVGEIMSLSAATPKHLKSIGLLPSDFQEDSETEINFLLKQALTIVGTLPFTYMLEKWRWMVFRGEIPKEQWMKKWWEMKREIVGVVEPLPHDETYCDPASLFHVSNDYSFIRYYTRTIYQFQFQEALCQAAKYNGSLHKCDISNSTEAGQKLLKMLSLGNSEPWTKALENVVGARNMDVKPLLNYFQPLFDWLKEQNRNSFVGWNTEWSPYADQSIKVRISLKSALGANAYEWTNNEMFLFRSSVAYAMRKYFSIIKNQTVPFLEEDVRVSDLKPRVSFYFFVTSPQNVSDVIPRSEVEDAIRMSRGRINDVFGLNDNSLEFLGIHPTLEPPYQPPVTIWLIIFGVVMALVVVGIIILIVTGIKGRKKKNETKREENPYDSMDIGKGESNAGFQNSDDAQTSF
UniProt Q9BYF1, 18-805: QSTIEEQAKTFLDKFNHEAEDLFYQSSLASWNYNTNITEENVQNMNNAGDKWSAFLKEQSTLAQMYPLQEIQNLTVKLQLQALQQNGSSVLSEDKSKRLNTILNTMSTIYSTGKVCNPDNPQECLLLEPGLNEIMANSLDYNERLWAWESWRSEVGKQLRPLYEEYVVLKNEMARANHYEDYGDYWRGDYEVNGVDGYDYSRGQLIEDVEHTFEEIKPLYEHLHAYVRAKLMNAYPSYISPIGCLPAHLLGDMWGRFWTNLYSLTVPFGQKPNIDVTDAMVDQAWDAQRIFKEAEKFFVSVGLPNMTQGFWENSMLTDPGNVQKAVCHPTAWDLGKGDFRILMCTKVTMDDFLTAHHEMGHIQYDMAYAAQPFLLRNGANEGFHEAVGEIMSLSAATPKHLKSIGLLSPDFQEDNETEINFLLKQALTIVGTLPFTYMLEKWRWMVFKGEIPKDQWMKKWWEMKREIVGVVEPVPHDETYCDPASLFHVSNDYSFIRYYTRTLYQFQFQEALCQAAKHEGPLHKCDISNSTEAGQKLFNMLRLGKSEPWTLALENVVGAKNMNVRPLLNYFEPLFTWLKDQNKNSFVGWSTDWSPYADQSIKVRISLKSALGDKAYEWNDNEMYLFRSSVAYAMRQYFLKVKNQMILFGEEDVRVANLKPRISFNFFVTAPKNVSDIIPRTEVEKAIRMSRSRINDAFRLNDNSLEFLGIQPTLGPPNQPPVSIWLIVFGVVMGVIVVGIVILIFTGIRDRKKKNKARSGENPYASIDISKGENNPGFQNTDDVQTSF

[3] = biological target: ACE2 in murine Lin- cells (Mus musculus, UniProt Q8R0I0); test: ACE2 activity assay in murine Lin- cell lysates; format: biochemical; details: cell lysate, 4 h, n=5
[4] = biological target: T2, ACE in murine Lin- cells (Mus musculus, UniProt P09470); test: ACE activity assay in murine Lin- cell lysates; format: biochemical; details: cell lysate, 4 h, n=5
T2 sequence (P09470 35-1312): T1 sequence (P09470 35-1312)

[5] = biological target: ACE2 in human CD34+ cells (Homo sapiens, UniProt Q9BYF1); test: ACE2 activity assay in human CD34+ cell lysates
[6] = biological target: Human MNC ACE2 (Homo sapiens, UniProt Q9BYF1); test: ACE2 activity assay in human mononuclear cell lysates; details: listed as MLN-4760-B
[7] = biological target: T3, Murine MNC ACE (Mus musculus, UniProt P09470); test: ACE activity assay in murine mononuclear cell lysates; details: cell lysate, 4 h
T3 sequence (P09470 35-1312): T1 sequence (P09470 35-1312)

[8] = biological target: Murine MNC ACE2 (Mus musculus, UniProt Q8R0I0); test: ACE2 activity assay in murine mononuclear cell lysates

CC(C)C[C@H](N[C@@H](Cc1cncn1Cc1cc(Cl)cc(Cl)c1)C(=O)O)C(=O)O [isomer B, (2S)-2-[[(2S)-3-[3-[(3,5-dichlorophenyl)methyl]imidazol-4-yl]-1-hydroxy-1-oxopropan-2-yl]amino]-4-methylpentanoic acid]
selectivity for ACE2 over ACE in murine heart [1]: 100 fold | Imax at ACE2 in murine heart ([1]; tissue lysate, 4 h): 54±4% | Imax at ACE in murine heart [2]: 20±3% | Imax / inhibition of ACE2 in murine Lin- cells [3]: 25% | Imax / inhibition of ACE in murine Lin- cells [4]: less than 10±2% | selectivity for ACE2 over ACE in human CD34+ cells [5]: 63 fold | selectivity for ACE2 over ACE in human MNCs [6]: 28 fold | Imax at ACE in murine MNCs [7]: 22±1% | selectivity for ACE2 over ACE in murine MNCs [8]: 228 fold | Imax at ACE2 in murine MNCs ([8]; cell lysate, 4 h): 43±1%

From paper PMC4804635 (European journal of pharmacology, 2016)
